The results in this text go back to ChEMBL document CHEMBL5131394, “Structure-activity and mechanistic studies of non-peptidic inhibitors of the PLK1 polo box domain identified through REPLACE” (Eur J Med Chem, 2022).

The chains behind the UniProt entries cited, without tags or fusion partners. Where a name states a change or a piece, a line headed by the entry shows the natural chain unless it says otherwise.
UniProt Q9H4B4: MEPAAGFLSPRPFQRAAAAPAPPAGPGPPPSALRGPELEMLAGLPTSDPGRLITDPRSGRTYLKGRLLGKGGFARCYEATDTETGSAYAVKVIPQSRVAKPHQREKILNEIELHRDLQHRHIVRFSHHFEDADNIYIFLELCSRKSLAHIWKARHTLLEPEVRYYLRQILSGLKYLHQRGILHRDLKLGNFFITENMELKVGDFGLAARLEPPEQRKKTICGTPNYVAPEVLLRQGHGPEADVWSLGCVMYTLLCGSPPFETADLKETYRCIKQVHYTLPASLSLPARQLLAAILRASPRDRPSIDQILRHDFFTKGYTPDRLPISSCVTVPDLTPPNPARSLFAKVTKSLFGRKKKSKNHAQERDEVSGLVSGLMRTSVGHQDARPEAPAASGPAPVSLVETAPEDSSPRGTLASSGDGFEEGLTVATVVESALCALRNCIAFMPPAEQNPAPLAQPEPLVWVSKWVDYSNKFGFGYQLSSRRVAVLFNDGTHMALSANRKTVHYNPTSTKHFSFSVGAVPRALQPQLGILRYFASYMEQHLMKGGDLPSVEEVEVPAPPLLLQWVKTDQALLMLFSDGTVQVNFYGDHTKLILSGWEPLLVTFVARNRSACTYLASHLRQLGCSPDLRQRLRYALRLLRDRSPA

A word on the pIC50: it is the IC50 on a negative log10 scale, so that one unit is a factor of ten. The low end stands for a high IC50, the high end for a low IC50. One may read the pEC50 as the EC50 on a negative log10 scale, so that one unit is a factor of ten. Low readings indicate a high EC50, high ones a low EC50.

Test [1] concerns the target T1, Serine/threonine-protein kinase PLK3 (Homo sapiens, UniProt Q9H4B4).
The target of test [2] is T1, Serine/threonine-protein kinase PLK3. This is another data set of the same source.

pEC50, pIC50: −log10 of the molar value.

In the case of `CCCCCCCCc1ccc(C(=O)Nc2ccc(C)cc2C(=O)O)cc1`, in test [1], the pIC50 is 5.11. In test [2], this compound showed a pEC50 of 5.16.
In test [1], `CCCCCCCCc1ccc(C(=O)Nc2cccc([N+](=O)[O-])c2C(=O)O)cc1` showed a pIC50 of 5.00.
Same read-out and setting: as for `CCCCCCCCc1ccc(C(=O)Nc2cccc(F)c2C(=O)O)cc1`, the figure is 4.88.
Same read-out and setting: the same measure for `CCCCCCCCc1ccc(C(=O)Nc2cccc(O)c2C(=O)O)cc1`: 4.92; for `CCCCCCCCc1ccc(C(=O)Nc2cccc(C(F)(F)F)c2C(=O)O)cc1`: 4.64; for `CCCCCCCCc1ccc(C(=O)Nc2cc(C)ccc2C(=O)O)cc1`: 5.13.
